# System: hyperlipidemia rats
# Assay: Effect of compound B on TG and cholesterol in serum of hyperlipidemia rats
# Type: in vivo, rat
# Settings: dose 100 mg/kg
# Protocol: The effect of compound B on the contents of TG, cholesterol in the serum of hypertipidemia rats.
# Male SD rats with a weight of 130-170 g, normal group, was given common food. Other groups were given food having high lipid content (1%cholesterol, 10%lard, 0.3% cholic acid, 0.2% methylthio imidazole and 88.5% common forage, made into a block.). For 14 sequential days, rats fasted for 12 hours were measured by reagent box method to obtain the contents of TG and cholesterol in serum. Then they were divided according to the value of blood fat content into different group. The experimental group was given 50, 100. 200 mg/kg compound B, the positive-control group was given clofibrate 100 mg/kg, and the control group was given water. The given medicine volume was 10 ml/kg, for 10 days, each group was still given high fat forage for 5 days before being given medicine, and common forage was given in the later 5 days. The rats were fasted for 11 hours before being given the final administration and blood of each rat was extracted to obtain the content of TG and cholesterol in serum 1 hour after being given medicine.
smiles,measurement,setting,value
CCOC(=O)C(C)(C)Oc1ccc(Cl)cc1 [clofibrate],"TG, after administration",10 days,2.72 ± 0.74 mmol/L
same,"Total cholesterol, after administration",10 days,2.15 ± 0.76 mmol/L
same,"TG, before administration",baseline,2.51 ± 0.77 mmol/L
same,"Total cholesterol, before administration",baseline,4.33 ± 0.51 mmol/L
